Assay results reported in US20240161653A1, “IN VITRO MODEL DEVICE FOR PLACENTAL BARRIER” (CFD Research Corporation, priority 2022, published 2024).

System: placental barrier of the in vitro placenta device (coculture of Bewo trophoblasts and HUVEC)
Settings: injected into maternal or fetal vascular channel at 0.1 μL/min for 1 hour; PI = ratio of sum ROIs trophoblast to vascular channel; FIG. 9A

“4 kD TRITC(tetramethylrhodamine)-dextran [4 kD TRITC-Dextran]” was tested, and the “mean maternal permeability index (PI) relative to PI from the fetal vasculature” value was “approximately 2 fold”.
